## Yeast mating assay 1: variants of the scFv Ab-14

The target is the same throughout: PDVDLGDISGINAS, from the HR2 region of SARS-CoV-2 spike.

Ab-14 is the parent antibody, in scFv form: VH, then a (GGGGS)3 linker, then VL. The light chain is unchanged in all variants.
VH: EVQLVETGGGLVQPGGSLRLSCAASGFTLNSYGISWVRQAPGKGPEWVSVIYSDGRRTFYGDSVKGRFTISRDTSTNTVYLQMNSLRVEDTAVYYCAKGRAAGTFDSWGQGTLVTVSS
VL: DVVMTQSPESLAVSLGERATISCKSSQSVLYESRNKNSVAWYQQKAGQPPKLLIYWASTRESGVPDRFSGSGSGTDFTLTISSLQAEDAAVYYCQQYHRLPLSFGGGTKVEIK

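Phage display of a naive human antibody library on the peptide gave the parent. AAYL49 was designed without a model: most single CDR substitutions and a random sample of double and triple ones. Affinity was read by AlphaSeq, a pooled yeast mating assay with surface-displayed partners. The frequency of each diploid, read from paired DNA barcodes, reflects how well the two displayed proteins bind. Each replicate has its own calibration line, from reference interactions of the BCL2 family. Mating was done three times.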

Substitutions are numbered in sequence along the VH above, starting at 1 (not Kabat). The read-out is the apparent dissociation constant on a log10 scale (nM): the lower, the stronger. The mean shown is taken over the replicates in which the pair was detected. A pair that was not seen in that replicate is written "ND"; this usually means weak binding, but a binder can also be missed. Nonspecific signal, from three strains lacking the peptide, appeared in 15% of pairings of library AAYL49, centred on 4.06 (5% of these signals below 2.83); values are not corrected for it. The control count says in how many pairings with the empty strains this scFv gave a signal, with their mean in brackets.

changes | log10 Kd, replicates | log10 Kd (nM), mean | signal with controls
N30L+K65F | 2.63 / 2.03 / 1.59 | 2.08 | 0/9
V50Q+G99F+A101F | ND / ND / ND | ND | 0/9
G26W+I51W+D106R | ND / ND / ND | ND | 1/9 (3.66)
T28N+S31R | 1.87 / 1.58 / 1.64 | 1.70 | 0/9
Y52D+R100N+D106V | ND / ND / ND | ND | 0/9
I34T+Y60D+V64M | 4.50 / ND / ND | 4.50 | 1/9 (4.14)
S53K+G99V+A101S | ND / ND / ND | ND | 0/9
S53N+G61I+K65G | ND / ND / ND | ND | 1/9 (3.64)
N30I+S35W+G99W | ND / ND / ND | ND | 0/9
D62M | 2.67 / 1.96 / 3.71 | 2.78 | 0/9
S53L+S63H+A102S | ND / 3.50 / ND | 3.50 | 1/9 (2.72)
N30I+I34H+R56L | 3.37 / 2.99 / ND | 3.18 | 0/9
T28V+I51G+G61S | ND / ND / ND | ND | 0/9
V50S+G55C+R57S | 5.15 / ND / 4.00 | 4.58 | 2/9 (4.10)
G26Q+S35L+D106V | ND / ND / ND | ND | 0/9
S53F+D62M+G103A | ND / ND / ND | ND | 1/9 (3.35)
T28R+Y32P+K65D | 2.38 / 2.22 / 2.67 | 2.42 | 0/9
V50C+T58S+S63P | ND / ND / ND | ND | 0/9
G33S+T58D+Y60S | ND / 4.60 / ND | 4.60 | 3/9 (4.30)
Y32R+G61W+D62A | ND / ND / ND | ND | 3/9 (4.39)
S31E+V64F+G103S | 5.63 / 3.13 / 4.84 | 4.54 | 5/9 (4.23)
I51P+R100K | ND / ND / ND | ND | 1/9 (3.69)
N30L+R57N+D62T | 6.07 / ND / ND | 6.07 | 0/9
Y32F+D54S+G61M | ND / ND / ND | ND | 0/9
G33L+I34P+G61R | ND / ND / ND | ND | 0/9
I34C+R56G+F59D | ND / 3.04 / 4.97 | 4.00 | 2/9 (3.27)
R57V+D62G+D106Y | 3.26 / ND / 4.78 | 4.02 | 1/9 (3.45)
I34N+S63M+A102P | ND / 2.83 / 4.07 | 3.45 | 2/9 (5.26)
L29K+D54V+S107P | ND / ND / ND | ND | 1/9 (2.53)
S53F+R56K+F59Q | 2.20 / 1.75 / 2.61 | 2.19 | 0/9
L29I+G33S+R56Q | ND / ND / ND | ND | 0/9
G33Y+I34P | ND / ND / ND | ND | 1/9 (2.38)
D54E+K65P+R100Q | ND / ND / ND | ND | 2/9 (2.89)
Y32S+S53M+D54W | ND / ND / ND | ND | 1/9 (2.17)
I51F+R56A | ND / ND / 3.74 | 3.74 | 1/9 (3.56)
F27W+T28W+G55E | ND / ND / ND | ND | 0/9

Excerpt, the final 3 entries:

changes,"log10 Kd, replicates","log10 Kd (nM), mean",signal with controls
Y32S+S53M+D54W,ND / ND / ND,ND,1/9 (2.17)
I51F+R56A,ND / ND / 3.74,3.74,1/9 (3.56)
F27W+T28W+G55E,ND / ND / ND,ND,0/9

Reference: Engelhart et al. 2022, doi:10.1038/s41597-022-01779-4. File: FLAb, binding data.